Reference: ChEMBL document CHEMBL1135364, “Synthesis and structure-activity relationships of oxime neurokinin antagonists: discovery of potent arylamides” (Bioorg Med Chem Lett, 2002)
pKi: −log10 of the molar value.

Chains of the proteins cited; added tags and fusions are not shown.
UniProt P25103, whole entry: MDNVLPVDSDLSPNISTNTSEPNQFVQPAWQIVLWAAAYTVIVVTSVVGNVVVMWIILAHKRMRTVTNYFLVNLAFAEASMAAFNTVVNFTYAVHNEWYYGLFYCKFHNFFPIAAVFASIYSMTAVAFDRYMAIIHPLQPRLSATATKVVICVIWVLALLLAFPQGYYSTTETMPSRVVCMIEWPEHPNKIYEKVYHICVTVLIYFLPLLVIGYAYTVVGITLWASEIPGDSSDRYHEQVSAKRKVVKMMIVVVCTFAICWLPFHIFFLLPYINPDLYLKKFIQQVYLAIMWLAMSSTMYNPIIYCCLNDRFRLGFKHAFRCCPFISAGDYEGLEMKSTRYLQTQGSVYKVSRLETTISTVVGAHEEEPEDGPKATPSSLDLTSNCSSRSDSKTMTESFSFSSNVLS

Target: Substance-P receptor (Homo sapiens, UniProt P25103)
Test: Tested for binding affinity against neurokinin 1 (NK1) receptor

pKi: 7.24
SMILES: CO/N=C(\CN(C)C(=O)c1ccccc1OC)C(CCN1CCC(O)(c2ccccc2)CC1)c1ccc(Cl)c(Cl)c1 (stereo unspecified)
